Results from patent US9365601B2, “1,2-cyclohexanediaminplatinum(II)-bis-(4-methylbenzenesulfonate) and the hydrates thereof” (dated 2016).

Experiments:
[1] = thermodynamic stability of the hydrates; conditions: compared with the monohydrate
solubility in water = conditions: 25° C. and normal pressure
[2] = cited from earlier work
[3] = differential thermal analysis (DTA measurement), guideline VDI 2263; conditions: closed glass ampoule filled with nitrogen
[4] = background, prior art (Schwartz et al.)

Row | Substance | thermodynamic stability [1] | solubility in water (solubility in water) | solubility in water [2, 4] | solubility in water ([2]; room temperature and normal pressure, prior art compound) | heat tone ([3]; at start of exothermic behaviour, 3K/min) | start of exothermic behaviour ([3]; heating rate 3K/min, room temperature to 450° C., two samples) | solubility in water ([2]; 25° C. and normal pressure, known according to the prior art)
1 | dihydrate of 1,2-cyclohexanediaminplatinum(II)-bis-(4-methylbenzenesulfonate) | thermodynamically more stable than the monohydrate | approx. 90 mg/ml | – | – | – | – | –
2 | dinitrato(1,2-diaminocyclohexane)platinum(II) | – | – | approx. 0.5 mg/ml | approx. 0.5 mg/ml | 1.175 J/g | 170 °C | –
3 | monohydrate of 1,2-cyclohexanediaminplatinum(II)-bis-(4-methylbenzenesulfonate) | – | – | 3 mg/mL | – | – | – | approx. 3 mg/ml

Like-named read-outs stand apart in the source and are kept apart here.
